Earlier results in patent US10724950B2, “Analysis method for interpreting Taylor dispersion data” (SARTORIUS BIOANALYTICAL INSTRUMENTS, INC., priority 2015, dated 2020).

Details: known value used in the fitting process

Substance: bovine serum albumin [BSA]
- Dm, analyte diffusion coefficient of monomer species: 6.03×10^−11 m^2/s
